Tests used:
[1] = target: T1, p53 R175H DBD protein (Homo sapiens, UniProt P04637, R175H); assay: Differential scanning fluorimetry (DSF) thermal stabilization of p53 R175H DBD; assay type: binding; settings: for effect on R175H DBD stability in DSF (qualitative): thiosemicarbazone with added metal salt, or metal salt alone
T1 construct: wild-type p53 protein DBD protein (residues 94-312 of the full length); made in house; host or cells: Escherichia coli Rosetta 2 (DE3), vector pSE420
Excerpt: Differential scanning fluorimetry (DSF) is a biophysical technique capable of identifying stabilizing or destabilizing physical interactions between protein and small chemical compounds by detecting changes in protein melting temperature (Tm) caused by such physical interactions. In DSF assays, small compounds that destabilize a protein decrease its Tm and small compounds that stabilize a protein increase its Tm. Small chemical compounds that stabilize p53 SRMMPs by physically interacting with them have broad potential as anti-cancer pharmaceuticals. This class of compounds could restore wild-type p53 protein functions of cell cycle arrest and apoptotic pathway activation in p53 SRMMP cancer cells because they have the potential to increase in such cells the population of active-configuration p53 SRMMP.
The importance of this aspect of the invention derives from the thermodynamic instability of p53 SRMMPs (as reflected in their relatively lower Tm than wild-type p53 protein) and the requirement for properly folded p53 SMRRP for input into the DSF SLS assay described in Example 2.
An equivalent volume of DMSO was used as a control. […] Sypro Orange stain (Bio-Rad, Hercules, Calif.) at 5,000× stock concentration was diluted to 5× concentration in 20 mM HEPES at pH 7.4 and added to each well of a 96-well plate. All SLS compounds were independently measured for fluorescence background to eliminate false positive results. […] All DSF assays were performed with a Touch RT-PCR system CFX96 (Bio-Rad) with the starting temperature of 4° C. by increasing the temperature of the plate 1.0° C. per min to 94° C. Fluorescence measurements were taken once every minute during all experiments. Tm values for each well, mean Tm values, and 95% confidence intervals were calculated with the program Prism 5 (GraphPad Software, La Jolla, Calif.) by fitting the raw fluorescence data to a Boltzmann sigmoidal curve.

[2] = test system: Saos-2 cells expressing p53^R175H; settings: for reactivation of p53^R175H in osteosarcoma cell-based assay: FIG. 7, equimolar metal salt or metal salt alone, three days; for p53 R175H-dependent cancer cell cytotoxicity: 27 hours, FIGS. 5A-5C
[3] = test system: cancer cells with p53^R175H mutations; settings: Yu et al. Cancer Cell 21(2012); cited from earlier work

## Cn1ncc2c(Nc3ccc(Br)cc3)nc(Nc3ccc(Br)cc3)nc21 [NSC11667]
[1]; 20 μM
  restoration of thermodynamic stability of R175H DBD relative to WT DBD: restores the thermodynamic stability of R175H DBD to the level of WT DBD
[1]; 20 μM compound
  Tm of R175H DBD in presence of compound: 39.22±0.13 °C
[1]; 20 μM compound, dose-dependent retest
  stabilization of R175H DBD (increase of Tm): about 11 °C
[2]; 100 μM, 3 days
  reduction of cell proliferation of p53^R175H-expressing Saos-2 cells: 90%

## [Cl-].[Cl-].[Zn+2] [ZnCl2]
[1]
  effect on R175H DBD stability in DSF (qualitative): precipitate
[2]
  reactivation of p53^R175H in osteosarcoma cell-based assay: substantially no effect

## O=C1C2CCN(CC2)C1(CO)CO [PRIMA-1, reference compound]
[2]; 50 μM (Cmax), 3 days
  proliferation and survival of p53^R175H-expressing Saos-2 cells (remaining): about 50%

## C/C(=N\NC(=S)N(C)C)c1ccccn1 [NSC319725, reference compound]
[1]; 20 μM, 40 μM and 80 μM
  thermodynamic stabilization of R175H DBD (qualitative): no stabilization
[2]
  p53 R175H-dependent cancer cell cytotoxicity: marked
[3]
  restoring p53 activity to cancer cells: restoring p53 activity

## NS(=O)(=O)c1nc2nc[nH]c(=O)c2[nH]1 [NSC635448]
[1]; 40 μM and 80 μM
  restoration of thermodynamic stability of R175H DBD relative to WT DBD: restores the thermodynamic stability of R175H DBD to the level of WT DBD
[1]; 80 μM compound
  Tm of R175H DBD in presence of compound: 43.50±0.07 °C
  stabilization of R175H DBD (increase of Tm): more than 15 °C
[2]; 1 μM, 3 days
  reduction of cell growth of p53^R175H-expressing Saos-2 cells: 80%
[2]
  p53 R175H-dependent cancer cell cytotoxicity: marked

## [Cl][Fe][Cl] [Fe(II)Cl2]
[1]
  effect on R175H DBD stability in DSF (qualitative): reduced the Tm
[2]
  reactivation of p53^R175H in osteosarcoma cell-based assay: substantially no effect

## [Cl][Cu][Cl] [CuCl2]
[1]
  effect on R175H DBD stability in DSF (qualitative): reduced the Tm
[2]
  reactivation of p53^R175H in osteosarcoma cell-based assay: substantially no effect
